# Assay results taken from patent US20200207868A1 (UNIVERSITY OF SASKATCHEWAN, published 2020).
# Amino acid sequences for entries named in this document (tags omitted). Residues count along the entry.
# UniProt P21860, 20-643 limits assumed: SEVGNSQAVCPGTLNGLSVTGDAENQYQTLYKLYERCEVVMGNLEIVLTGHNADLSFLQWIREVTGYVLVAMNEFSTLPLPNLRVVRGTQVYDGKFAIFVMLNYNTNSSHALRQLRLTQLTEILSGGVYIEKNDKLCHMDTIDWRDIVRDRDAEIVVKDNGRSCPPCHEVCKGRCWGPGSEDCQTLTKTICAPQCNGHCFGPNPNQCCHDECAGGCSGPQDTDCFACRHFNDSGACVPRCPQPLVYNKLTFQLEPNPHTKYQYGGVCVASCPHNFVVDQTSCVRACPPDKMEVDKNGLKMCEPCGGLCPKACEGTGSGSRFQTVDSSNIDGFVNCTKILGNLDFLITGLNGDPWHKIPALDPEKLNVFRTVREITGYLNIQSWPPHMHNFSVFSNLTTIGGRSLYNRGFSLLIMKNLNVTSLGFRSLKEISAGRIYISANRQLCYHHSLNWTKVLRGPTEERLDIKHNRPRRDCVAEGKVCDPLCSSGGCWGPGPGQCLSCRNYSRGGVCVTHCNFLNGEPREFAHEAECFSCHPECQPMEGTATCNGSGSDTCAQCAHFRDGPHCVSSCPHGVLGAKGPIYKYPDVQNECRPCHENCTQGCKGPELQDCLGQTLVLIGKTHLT
# B1: HER3-3 IgG (antibody, V domains shown)
# VH: not shown
# VL: DIQMTQSPSSLSASVGDRVTITCRASQGISNYLAWYQQKPGKAPKLLIYAASSLQSGVPSRFSGSRSGTDFTLTISSLQPEDFATYYCQQYGWLPLTFGQGTKVEIKR
# What was measured:
# [1] = target: HER3 (as used in the biolayer interferometry of Example 2) (UniProt P21860 20-643, limits assumed); assay: BLI
# [2] = target: T1, recombinant Fc-tag-fused human HER3 ectodomain (HER3-ECD-Fc), Sino Biological (human, UniProt P21860 20-643); assay: BLI, IgG on amine-reactive (ARG2) biosensor, HER3-ECD in solution
# T1 construct: extracellular domain; Bought from Sino Biological Inc; also called recombinant HER3-ECD; not shown: Fc tag of the purchased fusion protein
binder,measurement,setting,value
B1,Kd,[1],340 pM
same,Kd,[2],430 pM
